The IC50 is the concentration that gives 50% inhibition. A higher IC50 goes with weaker potency.

Protein sequences, listed by entry. Tags and fused reporters are not part of them. Lines headed by an entry give the natural chain unless they say otherwise; changes in a name come on top.
UniProt P28593: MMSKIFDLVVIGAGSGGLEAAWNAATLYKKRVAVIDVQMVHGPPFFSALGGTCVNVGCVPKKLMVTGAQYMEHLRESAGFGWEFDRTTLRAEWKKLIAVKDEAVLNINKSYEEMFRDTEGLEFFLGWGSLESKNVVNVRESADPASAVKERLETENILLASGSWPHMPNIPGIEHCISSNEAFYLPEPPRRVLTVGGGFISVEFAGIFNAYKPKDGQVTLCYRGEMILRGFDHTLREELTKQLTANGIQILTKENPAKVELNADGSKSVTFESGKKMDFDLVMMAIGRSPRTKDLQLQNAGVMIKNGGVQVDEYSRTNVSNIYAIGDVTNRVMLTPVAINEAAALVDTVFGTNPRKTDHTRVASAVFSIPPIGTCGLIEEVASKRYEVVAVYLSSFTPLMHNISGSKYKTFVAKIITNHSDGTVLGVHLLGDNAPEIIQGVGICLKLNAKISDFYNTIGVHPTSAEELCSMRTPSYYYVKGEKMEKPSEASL

The target in the assay is Trypanothione reductase (Trypanosoma cruzi, UniProt P28593). The assay is described as follows: Inhibition of Trypanosoma cruzi Trypanothione reductase.

Regarding `CC1CCCCC12NC(=O)N(CC(=O)Nc1ccccc1Sc1ccccc1)C2=O` (stereo unspecified), the IC50 turned out to be 84.4 µM. This lies in the double-digit micromolar range.

For the origin of these results see ChEMBL document CHEMBL1153395, “Development of a novel virtual screening cascade protocol to identify potential trypanothione reductase inhibitors” (J Med Chem, 2009).
